Data: US20020010186A1, “Dihydropyrimidines and uses thereof” (Synaptic Pharmaceutical Corporation, priority 1996, published 2002)

Chains of the proteins cited; added tags and fusions are not shown.
UniProt P25100, whole entry: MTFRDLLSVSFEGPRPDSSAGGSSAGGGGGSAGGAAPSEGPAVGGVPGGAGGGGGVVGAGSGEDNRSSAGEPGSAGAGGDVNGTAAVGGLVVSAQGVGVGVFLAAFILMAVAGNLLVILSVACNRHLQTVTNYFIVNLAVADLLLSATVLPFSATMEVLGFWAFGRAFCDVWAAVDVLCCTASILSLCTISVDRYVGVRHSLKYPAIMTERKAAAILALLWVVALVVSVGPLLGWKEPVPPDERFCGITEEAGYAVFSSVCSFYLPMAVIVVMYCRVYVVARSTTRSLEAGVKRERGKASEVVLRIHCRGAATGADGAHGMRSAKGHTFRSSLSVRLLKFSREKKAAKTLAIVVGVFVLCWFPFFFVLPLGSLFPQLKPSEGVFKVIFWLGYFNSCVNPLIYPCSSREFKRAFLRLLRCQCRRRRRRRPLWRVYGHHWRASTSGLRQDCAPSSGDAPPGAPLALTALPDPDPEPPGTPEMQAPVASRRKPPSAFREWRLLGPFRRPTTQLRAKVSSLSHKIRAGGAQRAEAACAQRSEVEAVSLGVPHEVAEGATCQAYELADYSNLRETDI
UniProt P35368, whole entry: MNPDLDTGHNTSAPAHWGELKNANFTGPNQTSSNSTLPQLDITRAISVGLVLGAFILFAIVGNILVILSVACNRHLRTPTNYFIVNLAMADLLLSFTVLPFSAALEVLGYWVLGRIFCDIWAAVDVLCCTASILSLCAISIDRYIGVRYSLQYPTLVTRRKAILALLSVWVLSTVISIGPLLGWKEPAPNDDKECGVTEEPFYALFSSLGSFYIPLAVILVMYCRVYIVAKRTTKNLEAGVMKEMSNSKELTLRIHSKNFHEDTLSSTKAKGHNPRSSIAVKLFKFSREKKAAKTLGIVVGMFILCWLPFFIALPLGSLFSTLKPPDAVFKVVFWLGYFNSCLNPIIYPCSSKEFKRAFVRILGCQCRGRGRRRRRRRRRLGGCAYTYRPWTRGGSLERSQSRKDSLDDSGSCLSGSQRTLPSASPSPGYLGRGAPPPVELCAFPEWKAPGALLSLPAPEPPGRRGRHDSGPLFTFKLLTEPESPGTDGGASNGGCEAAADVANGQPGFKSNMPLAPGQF

Experiments:
human α1A receptor = target: T1, human α1A receptor (Homo sapiens, UniProt P35348); experiment: Radioligand binding assay ([3H]prazosin) at cloned human α1A adrenergic receptor
T1 sequence (P35348 1-466): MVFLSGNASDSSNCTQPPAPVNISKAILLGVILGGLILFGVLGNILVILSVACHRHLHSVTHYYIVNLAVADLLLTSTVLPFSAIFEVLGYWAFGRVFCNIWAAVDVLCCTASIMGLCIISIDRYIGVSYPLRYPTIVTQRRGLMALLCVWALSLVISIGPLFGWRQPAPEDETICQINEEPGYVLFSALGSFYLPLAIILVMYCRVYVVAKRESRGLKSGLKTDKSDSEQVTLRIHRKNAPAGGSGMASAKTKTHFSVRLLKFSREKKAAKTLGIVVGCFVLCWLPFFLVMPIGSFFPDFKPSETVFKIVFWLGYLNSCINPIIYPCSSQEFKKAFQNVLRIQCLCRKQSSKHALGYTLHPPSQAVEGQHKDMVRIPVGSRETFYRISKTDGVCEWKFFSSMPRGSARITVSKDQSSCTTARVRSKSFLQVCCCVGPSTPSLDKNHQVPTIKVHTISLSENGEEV
Experimental: (§1) These cell lines were prepared by transfecting the cloned cDNA or cloned genomic DNA or constructs containing both genomic DNA and cDNA encoding the human u-adrenergic receptors as follows:
(§2) The construct involved ligating three partial overlapping fragments: a 5′ 0.6 kb HincII genomic clone, a central 1.8 EcoRI hippocampal cDNA clone, and a 3′ 0.6Kb PstI genomic clone. The hippocampal cDNA fragment overlaps with the 5′ and 3′ genomic clones so that the HincII and PstI sites at the 5′ and 3′ ends of the cDNA clone, respectively, were utilized for ligation. This full-length clone was cloned into the KpnI site of the expression vector, using the 5′ and 3′ KpnI sites of the fragment, derived from vector (i.e., pBluescript) and 3′-untranslated sequences, respectively. Stable cell lines were selected as described above. […] Radioligand Binding Assays: Transfected cells from culture flasks were scraped into 5 ml of 5 mM Tris-HCl, 5 mM EDTA, pH 7.5, and lysed by sonication. The cell lysates were centrifuged at 1000 rpm for 5 min at 4° C., and the supernatant was centrifuged at 30,000×g for 20 min at 4° C. The pellet was suspended in 50 mM Tris-HCl, 1 mM MgCl2, and 0.1% ascorbic acid at pH 7.5. […] Nonspecific binding was determined in the presence of 10 μM phentolamine. […]

human α1D receptor = human α1D receptor (Homo sapiens, UniProt P25100); experiment: Radioligand binding assay ([3H]prazosin) at cloned human α1D adrenergic receptor; settings: membranes of LM(tk-) cells, [3H]prazosin 0.5 nM, read-out: hα1d pKi (converted)
Experimental: as §1
The cells were grown, in a controlled environment ([…]., 5% CO2), as monolayers in Dulbecco's modified Eagle's Medium (GIBCO, Grand Island, N.Y.) containing 25 mM glucose and supplemented with 10% bovine calf serum, 100 units/ml penicillin g, and 100 μg/ml streptomycin sulfate.
as §2, with “sonication.” for “sonication. The cell lysates were centrifuged at 1000 rpm for 5 min at 4° C., and the supernatant was centrifuged at 30,000×g for 20 min at 4° C. The pellet was suspended in 50 mM Tris-HCl, 1 mM MgCl2, and 0.1% ascorbic acid at pH 7.5.”

human α1B receptor = human α1B receptor (Homo sapiens, UniProt P35368); experiment: Radioligand binding assay ([3H]prazosin) at cloned human α1B adrenergic receptor; settings: membranes of LM(tk-) cells, [3H]prazosin 0.5 nM, read-out: hα1b pKi (converted)
Experimental: as §1
The construct involved ligating the full-length containing EcoRI brainstem cDNA fragment from λ ZapII into the expression vector. Stable cell lines were selected as described above.
as §2, with “C.” for “C. The pellet was suspended in 50 mM Tris-HCl, 1 mM MgCl2, and 0.1% ascorbic acid at pH 7.5.”

COC(=O)C1=C(C)N=C(C)N(CCCCCN2CCC(C(=O)OC)(c3ccccc3)CC2)C1c1ccc(F)c(F)c1 (stereo not shown) [Example 17, 6-(3,4-Difluorophenyl)-1,6-dihydro-5-methoxycarbonyl-1-(5-(4-methoxycarbonyl-4-phenylpiperidin-1-yl)-pentyl)-2,4-dimethylpyrimidine]
Ki (human α1A receptor): 0.00102 µM

CCC1=C(C(N)=O)C(c2ccc([N+](=O)[O-])cc2)N(C(=O)NCCCN2CCC(C(=O)OC)(c3ccccc3)CC2)C(=O)N1 (single isomer, unassigned; (+)) [Example 13, (+)-5-Carboxamido-4-ethyl-1-{N-[3-(4-methoxycarbonyl-4-phenylpiperidin-1-yl)propyl]}carboxamido-6-(4-nitrophenyl)-2-oxo-1,2,3,6-tetrhydropyrimidine]
Ki (human α1D receptor): 0.724 µM
Ki (human α1B receptor): 0.617 µM
Ki (human α1A receptor; cloned human α1a receptor, membranes of LM(tk-) cells, [3H]prazosin 0.5 nM, read-out: hα1a pKi (converted)): 0.000182 µM

Like-named read-outs stand apart in the source and are kept apart here.
